Assay results taken from ChEMBL document CHEMBL1909046, “DrugMatrix in vitro pharmacology data”.

By UniProt entry, the sequences of proteins in these tests, tags left out. Where a name states a change or a piece, a line headed by the entry shows the natural chain unless it says otherwise. Residues count along the entry.
UniProt P27361, 2-379 limits assumed: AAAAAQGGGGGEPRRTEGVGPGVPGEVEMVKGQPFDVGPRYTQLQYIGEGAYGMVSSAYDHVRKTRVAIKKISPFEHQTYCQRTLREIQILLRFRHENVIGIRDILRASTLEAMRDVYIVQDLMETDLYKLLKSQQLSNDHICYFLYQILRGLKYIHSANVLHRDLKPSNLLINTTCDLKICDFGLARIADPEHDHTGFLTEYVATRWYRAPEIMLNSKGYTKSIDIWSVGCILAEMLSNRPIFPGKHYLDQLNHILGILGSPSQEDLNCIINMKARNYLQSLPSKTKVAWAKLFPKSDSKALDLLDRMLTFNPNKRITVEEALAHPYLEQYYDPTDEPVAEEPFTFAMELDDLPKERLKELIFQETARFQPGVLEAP
UniProt P35372, whole entry, looked up: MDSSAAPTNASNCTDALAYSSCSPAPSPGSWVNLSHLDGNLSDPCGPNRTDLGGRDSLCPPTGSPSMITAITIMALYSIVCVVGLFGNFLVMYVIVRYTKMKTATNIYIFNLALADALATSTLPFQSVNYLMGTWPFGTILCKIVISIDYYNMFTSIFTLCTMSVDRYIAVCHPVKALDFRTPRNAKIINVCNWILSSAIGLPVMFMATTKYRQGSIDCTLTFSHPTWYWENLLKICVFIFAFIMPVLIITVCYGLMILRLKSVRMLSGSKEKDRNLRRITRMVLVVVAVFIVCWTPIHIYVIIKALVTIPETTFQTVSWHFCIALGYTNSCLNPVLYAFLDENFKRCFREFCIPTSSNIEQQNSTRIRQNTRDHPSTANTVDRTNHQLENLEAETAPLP
UniProt Q16539, 2-360 limits assumed: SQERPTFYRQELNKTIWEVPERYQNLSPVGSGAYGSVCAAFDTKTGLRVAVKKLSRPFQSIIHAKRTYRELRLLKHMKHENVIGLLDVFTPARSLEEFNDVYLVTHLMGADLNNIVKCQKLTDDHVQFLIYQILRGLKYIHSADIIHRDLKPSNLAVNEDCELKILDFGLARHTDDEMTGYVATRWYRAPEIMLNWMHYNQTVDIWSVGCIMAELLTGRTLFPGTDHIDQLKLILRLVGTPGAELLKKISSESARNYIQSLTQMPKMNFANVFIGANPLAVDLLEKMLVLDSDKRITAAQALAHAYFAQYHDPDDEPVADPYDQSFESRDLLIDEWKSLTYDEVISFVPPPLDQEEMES
UniProt P15207, whole entry S389L: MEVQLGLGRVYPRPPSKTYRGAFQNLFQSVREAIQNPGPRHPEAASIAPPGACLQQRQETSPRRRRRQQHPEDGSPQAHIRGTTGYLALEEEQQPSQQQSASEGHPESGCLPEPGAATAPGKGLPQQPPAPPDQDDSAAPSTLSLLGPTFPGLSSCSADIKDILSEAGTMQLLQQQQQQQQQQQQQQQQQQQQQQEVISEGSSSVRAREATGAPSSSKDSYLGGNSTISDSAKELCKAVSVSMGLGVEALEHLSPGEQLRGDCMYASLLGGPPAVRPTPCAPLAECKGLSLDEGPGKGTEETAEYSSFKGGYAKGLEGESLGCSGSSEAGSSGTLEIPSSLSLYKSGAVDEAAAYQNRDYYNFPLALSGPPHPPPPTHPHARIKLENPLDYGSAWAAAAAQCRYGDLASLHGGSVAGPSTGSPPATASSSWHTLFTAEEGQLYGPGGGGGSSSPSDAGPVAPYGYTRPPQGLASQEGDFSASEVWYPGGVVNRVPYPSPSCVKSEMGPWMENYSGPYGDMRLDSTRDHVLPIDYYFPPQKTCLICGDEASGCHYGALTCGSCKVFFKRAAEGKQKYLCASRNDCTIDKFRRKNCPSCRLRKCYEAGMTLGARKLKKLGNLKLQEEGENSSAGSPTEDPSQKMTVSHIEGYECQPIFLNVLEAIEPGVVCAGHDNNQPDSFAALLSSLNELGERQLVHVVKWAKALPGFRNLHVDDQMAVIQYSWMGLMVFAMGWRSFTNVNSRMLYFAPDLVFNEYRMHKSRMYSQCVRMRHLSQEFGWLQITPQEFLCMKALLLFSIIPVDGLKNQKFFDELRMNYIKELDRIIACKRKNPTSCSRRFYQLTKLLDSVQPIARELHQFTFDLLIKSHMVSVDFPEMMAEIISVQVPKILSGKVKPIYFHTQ
UniProt Q01959, whole entry, looked up: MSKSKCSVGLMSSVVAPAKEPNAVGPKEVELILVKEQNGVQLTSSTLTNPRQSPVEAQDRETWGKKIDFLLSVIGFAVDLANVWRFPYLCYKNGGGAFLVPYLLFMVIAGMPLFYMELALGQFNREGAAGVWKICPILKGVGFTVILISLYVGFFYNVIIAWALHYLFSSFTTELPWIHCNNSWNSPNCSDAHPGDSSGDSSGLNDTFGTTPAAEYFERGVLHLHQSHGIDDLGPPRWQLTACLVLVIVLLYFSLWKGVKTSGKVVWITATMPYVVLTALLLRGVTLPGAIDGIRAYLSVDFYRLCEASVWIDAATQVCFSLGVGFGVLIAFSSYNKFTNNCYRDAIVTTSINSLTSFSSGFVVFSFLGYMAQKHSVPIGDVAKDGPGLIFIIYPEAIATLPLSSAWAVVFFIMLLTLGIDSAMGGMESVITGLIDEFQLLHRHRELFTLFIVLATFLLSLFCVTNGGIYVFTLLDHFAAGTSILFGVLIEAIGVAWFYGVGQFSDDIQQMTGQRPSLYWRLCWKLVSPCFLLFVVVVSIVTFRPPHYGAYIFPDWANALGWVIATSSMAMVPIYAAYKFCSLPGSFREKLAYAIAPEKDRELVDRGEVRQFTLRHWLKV
UniProt O70528: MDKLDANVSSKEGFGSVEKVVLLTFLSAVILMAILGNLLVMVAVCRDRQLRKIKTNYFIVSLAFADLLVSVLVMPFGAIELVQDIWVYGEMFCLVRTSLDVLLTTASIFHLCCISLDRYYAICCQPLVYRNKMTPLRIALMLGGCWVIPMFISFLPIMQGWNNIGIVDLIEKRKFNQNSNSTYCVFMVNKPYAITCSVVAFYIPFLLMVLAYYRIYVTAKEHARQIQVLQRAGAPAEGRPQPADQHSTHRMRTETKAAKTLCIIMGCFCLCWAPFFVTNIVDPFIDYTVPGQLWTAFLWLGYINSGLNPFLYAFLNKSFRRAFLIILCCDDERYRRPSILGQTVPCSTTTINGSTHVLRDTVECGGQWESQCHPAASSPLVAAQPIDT
UniProt P35462, whole entry, looked up: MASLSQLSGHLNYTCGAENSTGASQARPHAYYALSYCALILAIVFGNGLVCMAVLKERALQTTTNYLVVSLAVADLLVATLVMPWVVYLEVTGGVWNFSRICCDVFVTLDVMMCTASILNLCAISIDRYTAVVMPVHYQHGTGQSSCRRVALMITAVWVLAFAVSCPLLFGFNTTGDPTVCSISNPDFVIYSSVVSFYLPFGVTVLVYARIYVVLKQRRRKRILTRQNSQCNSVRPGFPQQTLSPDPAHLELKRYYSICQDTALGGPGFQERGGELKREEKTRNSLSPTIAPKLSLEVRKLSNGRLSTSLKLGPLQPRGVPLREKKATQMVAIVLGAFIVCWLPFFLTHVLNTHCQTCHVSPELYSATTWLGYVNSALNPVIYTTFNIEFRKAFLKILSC
UniProt P23975, whole entry, looked up: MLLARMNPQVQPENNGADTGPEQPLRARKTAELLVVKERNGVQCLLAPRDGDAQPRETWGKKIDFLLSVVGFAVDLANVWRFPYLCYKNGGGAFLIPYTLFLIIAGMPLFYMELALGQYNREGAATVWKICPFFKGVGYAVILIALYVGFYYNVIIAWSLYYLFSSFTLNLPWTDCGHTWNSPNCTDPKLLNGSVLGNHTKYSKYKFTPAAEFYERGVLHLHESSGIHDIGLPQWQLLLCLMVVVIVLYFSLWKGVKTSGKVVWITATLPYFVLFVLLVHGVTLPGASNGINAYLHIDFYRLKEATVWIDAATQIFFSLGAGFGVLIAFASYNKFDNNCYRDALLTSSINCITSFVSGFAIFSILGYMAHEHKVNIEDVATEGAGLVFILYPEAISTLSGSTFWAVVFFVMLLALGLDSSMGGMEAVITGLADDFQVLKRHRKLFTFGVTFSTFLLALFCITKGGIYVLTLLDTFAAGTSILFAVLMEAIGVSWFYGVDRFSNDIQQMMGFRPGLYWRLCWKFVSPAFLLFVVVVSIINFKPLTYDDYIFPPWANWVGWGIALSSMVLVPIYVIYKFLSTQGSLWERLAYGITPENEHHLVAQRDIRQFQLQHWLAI
UniProt P06239, 2-509 limits assumed: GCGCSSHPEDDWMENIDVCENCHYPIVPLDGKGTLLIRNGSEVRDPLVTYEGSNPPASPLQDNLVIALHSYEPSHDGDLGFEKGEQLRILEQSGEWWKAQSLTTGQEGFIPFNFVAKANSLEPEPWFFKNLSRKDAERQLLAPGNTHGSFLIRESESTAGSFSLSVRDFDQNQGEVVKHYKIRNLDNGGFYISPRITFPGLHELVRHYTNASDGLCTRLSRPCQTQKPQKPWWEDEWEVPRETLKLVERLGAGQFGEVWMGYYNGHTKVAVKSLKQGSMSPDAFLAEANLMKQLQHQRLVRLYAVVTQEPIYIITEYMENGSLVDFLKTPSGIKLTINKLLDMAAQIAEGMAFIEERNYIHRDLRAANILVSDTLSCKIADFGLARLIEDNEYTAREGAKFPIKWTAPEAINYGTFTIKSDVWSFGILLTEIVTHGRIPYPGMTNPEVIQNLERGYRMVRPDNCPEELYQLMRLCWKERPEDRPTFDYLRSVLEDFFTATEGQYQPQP
UniProt Q9Y271: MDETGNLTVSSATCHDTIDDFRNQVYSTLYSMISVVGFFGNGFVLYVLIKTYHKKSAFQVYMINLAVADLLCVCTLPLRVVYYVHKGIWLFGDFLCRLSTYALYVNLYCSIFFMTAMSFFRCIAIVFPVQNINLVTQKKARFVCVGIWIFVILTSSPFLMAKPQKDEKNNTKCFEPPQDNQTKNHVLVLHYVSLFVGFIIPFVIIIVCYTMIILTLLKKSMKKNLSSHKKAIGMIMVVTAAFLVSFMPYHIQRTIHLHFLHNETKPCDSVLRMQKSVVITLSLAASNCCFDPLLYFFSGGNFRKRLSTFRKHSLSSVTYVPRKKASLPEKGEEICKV
UniProt P41143, whole entry, looked up: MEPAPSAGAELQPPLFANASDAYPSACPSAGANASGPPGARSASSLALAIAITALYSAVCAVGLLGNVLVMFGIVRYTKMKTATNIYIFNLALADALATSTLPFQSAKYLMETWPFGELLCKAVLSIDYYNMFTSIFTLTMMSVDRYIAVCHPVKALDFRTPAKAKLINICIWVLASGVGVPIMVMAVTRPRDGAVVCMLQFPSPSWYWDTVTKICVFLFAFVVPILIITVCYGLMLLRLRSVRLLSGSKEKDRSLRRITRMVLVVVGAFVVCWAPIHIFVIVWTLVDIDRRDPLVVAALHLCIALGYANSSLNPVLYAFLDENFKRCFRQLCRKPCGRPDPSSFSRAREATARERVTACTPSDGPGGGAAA
UniProt P18825, whole entry, looked up: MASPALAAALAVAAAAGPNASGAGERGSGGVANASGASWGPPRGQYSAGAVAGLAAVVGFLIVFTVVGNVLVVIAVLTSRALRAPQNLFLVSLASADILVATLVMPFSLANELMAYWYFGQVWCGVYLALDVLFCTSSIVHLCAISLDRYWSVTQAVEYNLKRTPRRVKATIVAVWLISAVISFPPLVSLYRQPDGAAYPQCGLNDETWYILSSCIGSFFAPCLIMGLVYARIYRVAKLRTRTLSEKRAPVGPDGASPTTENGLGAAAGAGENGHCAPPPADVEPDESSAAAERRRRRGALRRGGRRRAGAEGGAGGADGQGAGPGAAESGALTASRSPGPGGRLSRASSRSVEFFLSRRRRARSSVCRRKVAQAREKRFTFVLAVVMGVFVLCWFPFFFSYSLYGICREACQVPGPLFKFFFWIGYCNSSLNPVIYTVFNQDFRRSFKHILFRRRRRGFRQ

Tests used:
[1] = biological target: Mitogen-activated protein kinase 3 (Homo sapiens, UniProt P27361); test: DRUGMATRIX: Protein Serine/Threonine Kinase, ERK1 enzyme inhibition (substrate: Myelin Basic Protein)
Mu-type opioid receptor = Mu-type opioid receptor (Homo sapiens, UniProt P35372); test: DRUGMATRIX: Opiate mu (OP3, MOP) radioligand binding (ligand: [3H] Diprenorphine); conditions: cho-k1
[2] = biological target: Mitogen-activated protein kinase 14 (Homo sapiens, UniProt Q16539); test: DRUGMATRIX: Protein Serine/Threonine Kinase, p38alpha enzyme inhibition (substrate: Myelin Basic Protein);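 further: inhibition of p38alpha enzyme activity in a biochemical kinase assay, with myelin basic protein serving as substrate; in other assays of this panel Not Active means under 50% inhibition at 10 µM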
Androgen receptor = Androgen receptor (Rattus norvegicus, UniProt P15207); further: in other assays of this panel Not Active means under 50% inhibition at 10 µM
[3] = biological target: Sodium-dependent dopamine transporter (Homo sapiens, UniProt Q01959); conditions: cho-k1
[4] = biological target: 5-hydroxytryptamine receptor 4 (Cavia porcellus, UniProt O70528); test: DRUGMATRIX: Serotonin (5-Hydroxytryptamine) 5-HT4 radioligand binding (ligand: [3H] GR-113808); conditions: strain Dunkin-Hartley, Striatum; further: in other assays of this panel Not Active means under 50% inhibition at 10 µM
D(3) dopamine receptor = D(3) dopamine receptor (Homo sapiens, UniProt P35462); test: DRUGMATRIX: Dopamine D3 radioligand binding (ligand: [3H] Spiperone); conditions: cho
Adenosine receptor A2a = Adenosine receptor A2a (Homo sapiens, UniProt P29274); test: DRUGMATRIX: Adenosine A2A radioligand binding (ligand: […]); conditions: hek293
[5] = biological target: Receptor tyrosine-protein kinase erbB-2 (Homo sapiens, UniProt P04626); test: DRUGMATRIX: Protein Tyrosine Kinase, ERBB2 (HER2) enzyme inhibition (substrate: Poly(Glu:Tyr)); conditions: insect cells;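 further: inhibition of HER2 kinase enzyme activity, measured with Poly(Glu:Tyr) as the phosphorylation substrate; in other assays of this panel Not Active means under 50% inhibition at 10 µM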
[6] = biological target: Sodium-dependent noradrenaline transporter (Homo sapiens, UniProt P23975); conditions: mdck
[7] = biological target: Tyrosine-protein kinase Lck (Homo sapiens, UniProt P06239); test: DRUGMATRIX: Protein Tyrosine Kinase, LCK enzyme inhibition (substrate: Poly(Glu:Tyr)); conditions: insect cells
[8] = biological target: Protein kinase C alpha type (Homo sapiens, UniProt P17252); test: DRUGMATRIX: Protein Serine/Threonine Kinase PKCalpha enzyme inhibition (substrate: Histone); conditions: sf9
[9] = biological target: Protein phosphatase 3 catalytic subunit alpha (Homo sapiens, UniProt Q08209); test: DRUGMATRIX: Protein Serine/Threonine Phosphatase, PPP3CA (Calcineurin, PP2B) enzyme inhibition (substrate: DiFMUP); further: in other assays of this panel Not Active means under 50% inhibition at 10 µM
[10] = biological target: Cysteinyl leukotriene receptor 1 (Homo sapiens, UniProt Q9Y271); test: DRUGMATRIX: Cysteinyl leukotriene receptor 1 radioligand binding (ligand: [3H]LTD4); conditions: cho-k1; further: in other assays of this panel Not Active means under 50% inhibition at 10 µM
[11] = biological target: cGMP-specific 3',5'-cyclic phosphodiesterase (Homo sapiens, UniProt O76074); test: DRUGMATRIX: Phosphodiesterase PDE5 enzyme inhibition (substrate: [3H]cGMP + cGMP); conditions: platelet
[12] = biological target: Epidermal growth factor receptor (Homo sapiens, UniProt P00533); test: DRUGMATRIX: Protein Tyrosine Kinase, EGF Receptor enzyme inhibition (substrate: Poly(Glu:Tyr)); conditions: insect cells
[13] = biological target: Delta-type opioid receptor (Homo sapiens, UniProt P41143); test: DRUGMATRIX: Opiate delta1 (OP1, DOP) radioligand binding (ligand: [3H] Naltrindole); conditions: hek293; further: in other assays of this panel Not Active means under 50% inhibition at 10 µM
[14] = biological target: Beta-2 adrenergic receptor (Homo sapiens, UniProt P07550); test: DRUGMATRIX: Adrenergic beta2 radioligand binding (ligand: [3H] CGP-12177); conditions: cho
[15] = biological target: Alpha-2C adrenergic receptor (Homo sapiens, UniProt P18825); conditions: sf9; on IC50: call rule not given here

CN(C(=O)Cc1ccc(Cl)c(Cl)c1)C1CCC2(CCCO2)CC1N1CCCC1 (stereo not drawn)
234 nM: IC50 (Mu-type opioid receptor)
95 nM: Ki (Mu-type opioid receptor)
Not Active: IC50 [1] | Ki [1] | IC50 [2] | Ki [2] | IC50 (Androgen receptor) | Ki (Androgen receptor) | IC50 [3] | Ki [3] | IC50 [4] | Ki [4] | IC50 (D(3) dopamine receptor) | Ki (D(3) dopamine receptor) | IC50 (Adenosine receptor A2a) | Ki (Adenosine receptor A2a) | IC50 [5] | Ki [5] | IC50 [6] | Ki [6] | IC50 [7] | Ki [7] | IC50 [8] | Ki [8] | IC50 [9] | Ki [9] | IC50 [10] | Ki [10] | IC50 [11] | Ki [11] | IC50 [12] | Ki [12] | IC50 [13] | Ki [13] | IC50 [14] | Ki [14] | IC50 [15] | Ki [15]
